Assay results as given in patent publication US20230233469A1, “SEMI-SOLID FORMULATION FOR VOLUNTARY ORAL ADMINISTRATION OF BIOACTIVE COMPOUNDS TO RODENTS” (priority 2020, published 2023).

Chains of the proteins cited; added tags and fusions are not shown. Residues count along the entry.
UniProt P28843, 37-760 limits assumed: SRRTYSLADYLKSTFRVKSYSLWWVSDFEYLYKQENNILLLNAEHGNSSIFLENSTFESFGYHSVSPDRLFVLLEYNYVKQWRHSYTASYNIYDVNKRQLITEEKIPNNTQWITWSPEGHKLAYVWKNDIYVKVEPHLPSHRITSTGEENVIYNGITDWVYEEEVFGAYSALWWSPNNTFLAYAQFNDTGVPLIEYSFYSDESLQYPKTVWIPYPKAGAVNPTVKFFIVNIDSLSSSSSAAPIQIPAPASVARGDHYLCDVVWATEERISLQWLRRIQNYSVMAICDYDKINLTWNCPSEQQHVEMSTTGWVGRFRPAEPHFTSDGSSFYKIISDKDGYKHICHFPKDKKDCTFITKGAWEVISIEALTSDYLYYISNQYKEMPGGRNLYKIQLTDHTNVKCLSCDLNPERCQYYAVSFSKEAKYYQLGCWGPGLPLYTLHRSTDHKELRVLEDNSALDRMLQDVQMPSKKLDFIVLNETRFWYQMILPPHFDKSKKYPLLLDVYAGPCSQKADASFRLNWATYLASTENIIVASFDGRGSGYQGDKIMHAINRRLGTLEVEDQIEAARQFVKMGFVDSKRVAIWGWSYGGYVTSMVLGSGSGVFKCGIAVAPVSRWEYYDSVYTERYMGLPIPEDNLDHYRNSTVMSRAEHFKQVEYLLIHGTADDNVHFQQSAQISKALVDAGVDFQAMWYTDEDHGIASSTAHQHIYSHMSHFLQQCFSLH

Target: DPPIV (Mus musculus, UniProt P28843)
Conditions: 50 mg/Kg once, plasma

decrease on DPPIV activity: 80-90%
Compound: N[C@@H](CC(=O)N1CCn2c(nnc2C(F)(F)F)C1)Cc1cc(F)c(F)cc1F [sitagliptin]
